Laboratory results: publication PMC12663137 (Nature Communications, 2025)

Protein sequences, listed by entry. Tags and fused reporters are not part of them. Lines headed by an entry give the natural chain unless they say otherwise; changes in a name come on top. Residues count along the entry.
UniProt Q7L0J3, 141-742 F188A limits assumed: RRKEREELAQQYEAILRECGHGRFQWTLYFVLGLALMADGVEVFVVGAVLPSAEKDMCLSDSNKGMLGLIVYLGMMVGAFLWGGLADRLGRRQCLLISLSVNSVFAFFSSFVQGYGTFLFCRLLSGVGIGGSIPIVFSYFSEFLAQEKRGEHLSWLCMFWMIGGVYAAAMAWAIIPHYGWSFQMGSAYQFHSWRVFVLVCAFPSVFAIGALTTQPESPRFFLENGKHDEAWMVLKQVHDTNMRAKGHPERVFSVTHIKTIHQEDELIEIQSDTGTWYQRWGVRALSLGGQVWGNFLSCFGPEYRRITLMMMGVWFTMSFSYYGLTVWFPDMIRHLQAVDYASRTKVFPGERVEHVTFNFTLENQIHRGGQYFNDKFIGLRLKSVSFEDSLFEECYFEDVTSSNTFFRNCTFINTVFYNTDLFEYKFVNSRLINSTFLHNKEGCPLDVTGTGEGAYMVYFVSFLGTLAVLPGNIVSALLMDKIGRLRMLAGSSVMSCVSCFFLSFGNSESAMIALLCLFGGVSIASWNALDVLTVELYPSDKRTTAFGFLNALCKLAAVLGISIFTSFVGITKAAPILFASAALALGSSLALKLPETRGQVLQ
UniProt Q7L0J3, 141-742 limits assumed: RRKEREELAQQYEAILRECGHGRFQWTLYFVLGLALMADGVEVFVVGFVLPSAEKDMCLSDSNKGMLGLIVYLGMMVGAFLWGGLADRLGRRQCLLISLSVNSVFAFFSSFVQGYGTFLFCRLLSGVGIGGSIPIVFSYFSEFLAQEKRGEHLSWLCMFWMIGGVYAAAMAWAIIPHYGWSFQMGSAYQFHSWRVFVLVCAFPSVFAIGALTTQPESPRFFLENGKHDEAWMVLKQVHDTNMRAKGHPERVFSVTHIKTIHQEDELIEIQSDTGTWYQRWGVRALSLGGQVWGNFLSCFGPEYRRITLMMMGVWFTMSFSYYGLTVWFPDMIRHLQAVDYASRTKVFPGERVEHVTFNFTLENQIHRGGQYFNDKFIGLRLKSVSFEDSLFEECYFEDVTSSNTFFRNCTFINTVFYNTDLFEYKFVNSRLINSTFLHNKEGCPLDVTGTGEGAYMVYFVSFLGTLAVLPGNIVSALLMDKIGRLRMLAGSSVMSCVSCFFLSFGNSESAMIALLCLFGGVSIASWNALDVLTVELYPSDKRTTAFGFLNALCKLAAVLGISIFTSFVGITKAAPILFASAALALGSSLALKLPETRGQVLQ
UniProt Q7L0J3, whole entry: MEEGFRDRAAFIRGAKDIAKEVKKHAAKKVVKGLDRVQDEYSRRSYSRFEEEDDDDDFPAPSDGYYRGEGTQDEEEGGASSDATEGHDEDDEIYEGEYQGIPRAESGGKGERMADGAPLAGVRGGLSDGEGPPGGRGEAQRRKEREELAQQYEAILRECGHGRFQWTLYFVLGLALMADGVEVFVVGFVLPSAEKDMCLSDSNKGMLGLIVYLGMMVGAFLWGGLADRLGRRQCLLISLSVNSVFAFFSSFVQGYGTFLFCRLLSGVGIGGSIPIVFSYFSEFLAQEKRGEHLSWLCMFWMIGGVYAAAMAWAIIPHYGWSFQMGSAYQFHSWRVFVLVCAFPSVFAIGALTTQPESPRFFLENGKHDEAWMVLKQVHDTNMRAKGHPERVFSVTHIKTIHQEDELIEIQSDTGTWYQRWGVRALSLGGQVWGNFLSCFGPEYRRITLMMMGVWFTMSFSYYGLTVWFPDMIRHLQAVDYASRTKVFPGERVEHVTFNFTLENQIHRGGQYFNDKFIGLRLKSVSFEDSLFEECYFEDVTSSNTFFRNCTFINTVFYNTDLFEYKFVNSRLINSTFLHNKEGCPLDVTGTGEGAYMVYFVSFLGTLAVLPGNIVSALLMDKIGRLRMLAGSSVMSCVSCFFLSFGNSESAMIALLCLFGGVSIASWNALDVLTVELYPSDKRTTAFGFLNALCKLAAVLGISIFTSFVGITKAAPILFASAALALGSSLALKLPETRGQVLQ

Key:
[1] = target: SV2A (Homo sapiens, UniProt Q7L0J3); test: Steady-state (saturation) binding of 3H-UCB-J with 30 µM UCB1244283 or 1% DMSO (Fig. 4A); settings: tested as the radiolabelled form
[2] = target: SV2AEM WT or SV2AEM F188A (Homo sapiens, UniProt Q7L0J3); test: Dissociation kinetics of 3H-UCB-J (Fig. 4E); settings: WT, DMSO, tested as the radiolabelled form
[3] = target: SV2AEM WT or SV2AEM F188A (Homo sapiens, UniProt Q7L0J3, F188A); test: Dissociation kinetics of 3H-UCB-J (Fig. 4E); settings: F188A, DMSO, tested as the radiolabelled form
[4] = target: SV2AEM (Homo sapiens, UniProt Q7L0J3); test: Association kinetics of 3H-UCB-J after pre-incubation with UCB1244283 (Fig. 4F); settings: pre-incubate DMSO, tested as the radiolabelled form

Kd ([1]; with 30 µM UCB1244283): 11.1 nM
binding capacity ([1]; with 30 µM UCB1244283): 126 fmol/assay
Kd ([1]; without UCB1244283 (1% DMSO)): 19.9 nM
binding capacity ([1]; without UCB1244283 (1% DMSO)): 43.8 fmol/assay
3H-UCB-J Binding (%) ([2]; 6 min): 16.81% and 32.44% and 23.64%
3H-UCB-J Binding (%) ([2]; 7 min): 18.27% and 28.46% and 22.70%
3H-UCB-J Binding (%) ([2]; 8 min): 14.73% and 29.13% and 23.48%
3H-UCB-J Binding (%) ([2]; 60 min): 0.00%
3H-UCB-J Binding (%) ([3]; 2 min): 43.17% and 40.73%
3H-UCB-J Binding (%) ([3]; 3 min): 49.47% and 40.14%
3H-UCB-J Binding (%) ([3]; 4 min): 59.39% and 38.71%
3H-UCB-J Binding (%) ([3]; 5 min): 28.29% and 39.47%
3H-UCB-J Binding (%) ([3]; 6 min): 20.72% and 31.32%
3H-UCB-J Binding (%) ([3]; 7 min): 18.54% and 29.80%
3H-UCB-J Binding (%) ([3]; 8 min): 19.38%
3H-UCB-J Binding (%) ([3]; 9 min): 13.07% and 16.27%
3H-UCB-J Binding (%) ([3]; 25 min): 3.74% and 5.67%
3H-UCB-J Binding (%) ([3]; 30 min): 1.72% and 2.06%
3H-UCB-J Binding (%) ([3]; 40 min): 4.58% and 2.56%
3H-UCB-J Binding (%) ([3]; 50 min): 6.94% and 9.54%
3H-UCB-J Binding (%) ([3]; 60 min): 8.53% and 6.68%
3H-UCB-J Binding (%) ([3]; 70 min): 4.92% and 4.33%
3H-UCB-J Binding (%) ([4]; 0.5 min): 0.16% and 0.30% and 0.33%
3H-UCB-J Binding (%) ([4]; 1 min): 0.25% and 0.34% and 0.36%
3H-UCB-J Binding (%) ([4]; 3.5 min): 0.52% and 0.66% and 0.57%
3H-UCB-J Binding (%) ([4]; 5 min): 0.59% and 0.58% and 0.69%
Compound: Cc1cnccc1CN1C[C@@H](c2cc(F)c(F)c(F)c2)CC1=O [UCB-J]
3H-UCB-J Binding (f.mol/assay) ([1]; DMSO, 3H-UCB-J 1.56 nM): 2 f.mol/assay and 3 f.mol/assay and 4 f.mol/assay

Where “and” joins values, the source holds several entries; their conditions need not be identical. Identical values can stand only once.
